Reference: patent publication US20240139185A1, “COMPOUNDS THAT PARTICIPATE IN COOPERATIVE BINDING AND USES THEREOF” (Revolution Medicines, Inc., priority 2018, published 2024)

What was measured:
[1] = target: cyclophilin A (CYPA) (Homo sapiens, UniProt P62937); assay: CYPA-compound binary complex formation by SPR; conditions: read-out: CYPA Binding Affinity
Protocol: In order to determine the affinity of compounds of the invention for cyclophilin A (CYPA), we employed surface plasmon resonance binding analysis using the following reagents, instruments and protocol as supplied by the instrument manufacturer.
Reagents and Instrument • 1. Instrument: Biacore S200 (GE Healthcare Life Sciences) • 2. Running buffer: 1×HBS-P+ (1×HBS supplemented with 0.05% Tween20), pH7.4, and 2% DMSO. • 3. Ligand: CypA-Avi • 4. Analyte: Serial dilution of WDB compounds from 50 μM to 0 μM, 2-fold dilution, 10 points (10 mM stock concentration). • 5. Sensor kit: Biotin CAPture Kit (BR28-9202-34, GE Healthcare Life Sciences) • 6. Regeneration buffer: 1 volume of 1 M NaOH and 3 volumes of 8 M guanidine hydrochloride (supplied with CAPture Kit, BR28-9202-34, GE Healthcare Life Sciences)
Experimental Procedure • 1. Capture of CAPreagent: 2 μl/min for 60 seconds. • 2. Immobilization of ligand CypA: Use Fc1 as the reference cell; immobilize CypA at 4 μg/ml using 5 μl/min flowrate on Fc2 (60s), Fc3 (80s) and Fc4 (80s), respectively. • 3. Binding of analytes: Inject WDB compound dilutions sequentially at 50 μl/min for association of 60 seconds. And then let it dissociates in buffer at 50 μl/min for 60 seconds. • 4. Regeneration: 2 injections of regeneration buffer at 30 μl/min for 60 seconds to regenerate the chip surface. • 5. Solvent correction: Run solvent correction at beginning and the end of the run. If run more than 6 compounds, add additional solvent correction every 6 compounds. • 6. Data fitting with built-in Biacore Evaluation Software: Steady-state fitting.

[2] = target: BRAF-GTP-KRAS-G12C complex (Homo sapiens, UniProt P01116+P62937, G12C); assay: KRAS-BRAF complex disruption through competition with CYPA-compound by TR-FRET; conditions: read-out: BRAF-GTP-KRAS-G12C Disruption; biochemical BRAF-KRAS G12C-GTP disruption assay EC50, with CYPA
Summary of the method: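 Compound-driven loss of KRAS–BRAF RBD TR-FRET signal, Eu-anti-His/APC-anti-GST pair (10/50 nM, 1.5 h), following a 3 h room-temperature preincubation of 50 nM His6-KRAS G12C-GTP and 500 nM CypA in 25 mM Hepes pH 7.3 buffer. EC50 by 4-parameter fit. Variants used wild-type KRAS in place of G12C or no CypA.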

[3] = test system: pERK in H358 cells; assay: pERK inhibition in H358 cells; conditions: read-out: Cellular pERK inhibition, 4 hours treatment
Summary of the method: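 Human lung cancer H358 cells in RPMI/10% FBS were exposed to compound or DMSO for 4 h. Fixed and permeabilized cells were stained overnight at 4 C with anti-phospho-ERK1/2 (Thr202/Tyr204). Near-infrared imaging read the pERK signal at 800 nm, with DRAQ5 at 700 nm.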

| SMILES | Kd [1] | EC50 [2] | IC50 [3] |
| --- | --- | --- | --- |
| C=CC(=O)N1CC[C@H](C(=O)N(C)[C@H](C(=O)N[C@H]2Cc3cc(O)cc(c3)-c3ccc4c(C(C)(C#N)CC5CCOCC5)cn(c4c3)CC(C)(C)COC(=O)[C@@H]3CCCN(N3)C2=O)C(C)C)C1 (single isomer, unassigned) [368] | > 15 µM | > 5 µM | > 10 µM |
| C[C@@H](Cl)C(=O)N1CC(C(=O)N(C)[C@H](C(=O)N[C@H]2Cc3cc(O)cc(c3)-c3ccc4c(C(C)(C)C#N)cn(c4c3)CC(C)(C)COC(=O)[C@@H]3CCCN(N3)C2=O)C2CCOCC2)C1 | > 15 µM | > 5 µM | > 10 µM |
| COc1cccc2c1c1ccc3cc1n2C[C@H](C)COC(=O)[C@@H]1CCCN(N1)C(=O)[C@@H](NC(=O)[C@H](C(C)C)N(C)C(=O)C1CN(C(=O)CCl)C1)Cc1cc(O)cc-3c1 | > 15 µM | < 0.5 µM | > 10 µM |
| CC(C)[C@@H](C(=O)N[C@H]1Cc2cc(O)cc(c2)-c2ccc3c(c2)N(CC(C)(C)COC(=O)[C@@H]2CCCN(N2)C1=O)CC31COc2ccccc21)N(C)C(=O)C1CN(C(=O)CCl)C1 (stereo partly drawn) | 5 to 15 µM | < 0.5 µM | < 1 µM |
| CC(C)[C@@H](C(=O)N[C@H]1Cc2cc(O)cc(c2)-c2ccc3c(C#CC(C)(C)O)nn(c3c2)CC(C)(C)COC(=O)[C@@H]2CCCN(N2)C1=O)N(C)C(=O)C1CN(C(=O)CCl)C1 | 5 to 15 µM | < 0.5 µM | > 10 µM |
| CC(C)[C@@H](C(=O)N[C@H]1Cc2cc(O)cc(c2)-c2ccc3c(-c4ccccc4OC(F)F)cn(c3c2)CC(C)(C)COC(=O)[C@@H]2CCCN(N2)C1=O)N(C)C(=O)C1CN(C(=O)CCl)C1 | > 15 µM | < 0.5 µM | 1 to 10 µM |
| C=CC(=O)N1CC(C(=O)N(C)[C@H](C(=O)N[C@H]2Cc3cc(O)cc(c3)-c3ccc4c(C(C)(C)C#N)cn(c4c3)C[C@H](C)COC(=O)[C@@H]3CCCN(N3)C2=O)C(C)C)C1 | 5 to 15 µM | 0.5 to 5 µM | > 10 µM |
| CC(C)[C@@H](C(=O)N[C@H]1Cc2cc(O)cc(c2)-c2ccc3c(-c4ccccc4OC4CCOCC4)cn(c3c2)CC(C)(C)COC(=O)[C@@H]2CCCN(N2)C1=O)N(C)C(=O)C1CN(C(=O)CCl)C1 | 5 to 15 µM | < 0.5 µM | < 1 µM |
| C=CC(=O)N1CC[C@H](C(=O)N(C)[C@H](C(=O)N[C@H]2Cc3cc(O)cc(c3)-c3ccc4c(-c5ccccc5COC)c(C#N)n(c4c3)CC(C)(C)COC(=O)[C@@H]3CCCN(N3)C2=O)C(C)C)C1 | > 15 µM | < 0.5 µM | < 1 µM |
| CC(C)[C@@H](C(=O)N[C@H]1Cc2cc(O)cc(c2)-c2ccc3c(C(C)(C)C#N)cn(c3c2)CC(C)(C)COC(=O)[C@@H]2CCCN(N2)C1=O)N(C)C(=O)C1CN(C(=O)[C@@H](C)Cl)C1 | 5 to 15 µM | 0.5 to 5 µM | 1 to 10 µM |
| CC(C)[C@@H](C(=O)N[C@H]1Cc2cc(O)cc(c2)-c2ccc3c(C(C)(C#N)C4CCCC4)cn(c3c2)CC(C)(C)COC(=O)[C@@H]2CCCN(N2)C1=O)N(C)C(=O)C1CN(C(=O)CCl)C1 (stereo partly drawn) | > 15 µM | < 0.5 µM | < 1 µM |
| C=CC(=O)N1CCC2(CCCN([C@H](C(=O)N[C@H]3Cc4cc(O)cc(c4)-c4ccc5c(C(C)(C)C#N)cn(c5c4)CC(C)(C)COC(=O)[C@@H]4CCCN(N4)C3=O)C(C)C)C2=O)C1 (single isomer, unassigned) [350] | < 5 µM | 0.5 to 5 µM | > 10 µM |
| CC(=O)C(C)(C)c1cn2c3cc(ccc13)-c1cc(O)cc(c1)C[C@H](NC(=O)[C@H](C(C)C)N(C)C(=O)C1CN(C(=O)CCl)C1)C(=O)N1CCC[C@H](N1)C(=O)OC[C@@H](C)C2 | 5 to 15 µM | < 0.5 µM | 1 to 10 µM |
| CC(C)[C@@H](C(=O)N[C@H]1Cc2cc(O)cc(c2)-c2ccc3c(c2)n(c(=O)n3-c2ccncc2)C[C@H](C)COC(=O)[C@@H]2CCCN(N2)C1=O)N(C)C(=O)C1CN(C(=O)CCl)C1 | < 5 µM | < 0.5 µM | > 10 µM |
| CCn1cc2c3cc(ccc31)-c1cc(O)cc(c1)C[C@H](NC(=O)[C@H](C(C)C)N(C)C(=O)C1CN(C(=O)CCl)C1)C(=O)N1CCC[C@H](N1)C(=O)OCC(C)C2 (stereo partly drawn) | < 5 µM | < 0.5 µM | < 1 µM |
| COc1cccc(C#N)c1-c1cn2c3cc(ccc13)-c1cc(O)cc(c1)C[C@H](NC(=O)[C@H](C(C)C)N(C)C(=O)C1CN(C(=O)CCl)C1)C(=O)N1CCC[C@H](N1)C(=O)OCC(C)(C)C2 | 5 to 15 µM | < 0.5 µM | < 1 µM |
| C=CC(=O)N1CC[C@@H](C(=O)N(C)[C@H](C(=O)N[C@H]2Cc3cc(O)cc(c3)-c3ccc4nc(C)n(c4c3)CC(C)(C)COC(=O)[C@@H]3CCCN(N3)C2=O)C(C)C)C1 | 5 to 15 µM | 0.5 to 5 µM | > 10 µM |
| CC(C)[C@@H](C(=O)N[C@H]1Cc2cc(O)cc(c2)-c2ccc3c(N4CCCC4=O)cn(c3c2)CC(C)(C)COC(=O)[C@@H]2CCCN(N2)C1=O)N(C)C(=O)C1CN(C(=O)CCl)C1 | 5 to 15 µM | < 0.5 µM | 1 to 10 µM |
| CC(C(=O)N[C@H]1Cc2cc(O)cc(c2)-c2ccc3c(C(C)(C)C#N)cn(c3c2)CC(C)(C)COC(=O)[C@@H]2CCCN(N2)C1=O)N(C)C(=O)C1CN(C(=O)CCl)C1 (stereo partly drawn) | > 15 µM | 0.5 to 5 µM | > 10 µM |
| CC(C)[C@@H](C(=O)N[C@H]1Cc2cc(O)cc(c2)-c2ccc3c4ccccc4n(c3c2)C[C@H](C)COC(=O)[C@@H]2CCCN(N2)C1=O)N(C)C(=O)C1CN(C(=O)CCl)C1 | > 15 µM | < 0.5 µM | 1 to 10 µM |
| CCC[C@@H](C(=O)N[C@H]1Cc2cc(O)cc(c2)-c2ccc3c(C(C)(C)C#N)cn(c3c2)CC(C)(C)COC(=O)[C@@H]2CCCN(N2)C1=O)N(C)C(=O)C1CN(C(=O)CCl)C1 | > 15 µM | < 0.5 µM | > 10 µM |
| C=CC(=O)N1CCC(C(=O)N(C)[C@H](C(=O)N[C@H]2Cc3cc(O)cc(c3)-c3ccc4c(C(C)(C#N)CC#N)cn(c4c3)CC(C)(C)COC(=O)[C@@H]3CCCN(N3)C2=O)C(C)C)C1 (stereo partly drawn) | < 5 µM | < 0.5 µM | 1 to 10 µM |
| COc1ccccc1-c1cc2ccc3cc2n1C[C@H](C)COC(=O)[C@@H]1CCCN(N1)C(=O)[C@@H](NC(=O)[C@H](C(C)C)N(C)C(=O)C1CN(C(=O)[C@@H](C)Cl)C1)Cc1cc(O)cc-3c1 | > 15 µM | 0.5 to 5 µM | > 10 µM |
| CC(C)[C@@H](C(=O)N[C@H]1Cc2cc(O)cc(c2)-c2ccc3c(C4CC4)nn(c3c2)CC(C)(C)COC(=O)[C@@H]2CCCN(N2)C1=O)N(C)C(=O)C1CN(C(=O)CCl)C1 | > 15 µM | < 0.5 µM | < 1 µM |
| C=CC(=O)N1CC[C@H](C(=O)N(C)[C@H](C(=O)N[C@H]2Cc3cc(O)cc(c3)-c3ccc4c(c3)N(CC(C)(C)COC(=O)[C@@H]3CCCN(N3)C2=O)CC4(C)COc2ccccn2)C(C)C)C1 (stereo partly drawn) | > 15 µM | 0.5 to 5 µM | 1 to 10 µM |
| C=CC(=O)N1CC[C@H](C(=O)N(C)[C@H](C(=O)N[C@H]2Cc3cc(O)cc(c3)-c3ccc4c(c3)c(c(C#N)n4CC)CC(C)(C)COC(=O)[C@@H]3CCCN(N3)C2=O)C(C)C)C1 | 5 to 15 µM | 0.5 to 5 µM | < 1 µM |
| CC(C)[C@@H](C(=O)N[C@H]1Cc2cc(O)cc(c2)-c2ccc3c(-c4cccc(Cl)c4C#N)cn(c3c2)CC(C)(C)COC(=O)[C@@H]2CCCN(N2)C1=O)N(C)C(=O)C1CN(C(=O)CCl)C1 | > 15 µM | < 0.5 µM | 1 to 10 µM |
